Reference: patent publication US10183009B2, “Therapeutic compounds and uses thereof” (GENENTECH, INC., priority 2014, dated 2019)

Sequences of proteins named here, by UniProt entry; tags and fusion partners are left off. Residues count along the entry.
UniProt P21675, 1525-1656 limits assumed: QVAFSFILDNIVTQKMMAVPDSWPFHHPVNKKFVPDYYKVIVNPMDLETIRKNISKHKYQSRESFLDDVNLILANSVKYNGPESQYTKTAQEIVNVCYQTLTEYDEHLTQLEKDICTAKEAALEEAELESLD

How the values were obtained:
[1] = target: BRD4(BD1) (Homo sapiens (Human), UniProt O60885); assay: BRD4 AlphaLisa Binding Assay
[2] = target: TAF1-BD2 (Homo sapiens (Human), UniProt P21675); assay: TAF1-BD2 TR-FRET Binding Assay; conditions: Assay: TAF-1

| SMILES | IC50 [1] [nM] | IC50 [2] [nM] |
| --- | --- | --- |
| CCCCn1cc(-c2cccc(C(=O)N(C)C)c2)c2cc[nH]c2c1=O [Example 2, 3-(6-butyl-7-oxo-1H-pyrrolo[2,3-c]pyridin-4-yl)-N,N-dimethyl-benzamide] | 2600 | – |
| COCCn1cc(-c2cccc(C(=O)N(C)C)c2)c2cc[nH]c2c1=O [Example 14, 3-[6-(2-methoxyethyl)-7-oxo-1H-pyrrolo[2,3-c]pyridin-4-yl]-N,N-dimethyl-benzamide] | – | 2000 |
